{
  "source": "patent US9700872B1",
  "about": "“Superpolar chromatographic stationary phases and extraction sorbents and their methods of synthesis” (THE FLORIDA INTERNATIONAL UNIVERSITY BOARD OF TRUSTEES, priority 2016, dated 2017)",
  "origin": "cited, not measured here",
  "data": [
    {"conditions": "octanol/water; Top 100 EPA Priority Pollutants (Table 2)", "values": [
      {"molecule": "Cc1cc([N+](=O)[O-])cc([N+](=O)[O-])c1O", "Log Kow": 2.1},
      {"molecule": "2-Chroethyl vinyl ether", "Log Kow": 1.4},
      {"molecule": "4,4-DDD", "Log Kow": 6.2},
      {"molecule": "4,4-DDE", "Log Kow": 7},
      {"molecule": "4,4-DDT", "Log Kow": 6.9},
      {"molecule": "Aldrine", "Log Kow": 4.5},
      {"molecule": "Alpha-BHC", "Log Kow": 3.8},
      {"molecule": "Dibenzo(h)anthracene", "Log Kow": 6.5}
    ]},
    {"conditions": "octanol/water; exemplary polyhydroxy molecules (Table 1)", "values": [
      {"molecule": "1-Ketose", "Log Kow": "−5.5"}
    ]}
  ]
}
